{
  "sequences": {"note": "Sequences of proteins named here, by UniProt entry; tags and fusion partners are left off.", "UniProt P42338, whole entry, species assumed": "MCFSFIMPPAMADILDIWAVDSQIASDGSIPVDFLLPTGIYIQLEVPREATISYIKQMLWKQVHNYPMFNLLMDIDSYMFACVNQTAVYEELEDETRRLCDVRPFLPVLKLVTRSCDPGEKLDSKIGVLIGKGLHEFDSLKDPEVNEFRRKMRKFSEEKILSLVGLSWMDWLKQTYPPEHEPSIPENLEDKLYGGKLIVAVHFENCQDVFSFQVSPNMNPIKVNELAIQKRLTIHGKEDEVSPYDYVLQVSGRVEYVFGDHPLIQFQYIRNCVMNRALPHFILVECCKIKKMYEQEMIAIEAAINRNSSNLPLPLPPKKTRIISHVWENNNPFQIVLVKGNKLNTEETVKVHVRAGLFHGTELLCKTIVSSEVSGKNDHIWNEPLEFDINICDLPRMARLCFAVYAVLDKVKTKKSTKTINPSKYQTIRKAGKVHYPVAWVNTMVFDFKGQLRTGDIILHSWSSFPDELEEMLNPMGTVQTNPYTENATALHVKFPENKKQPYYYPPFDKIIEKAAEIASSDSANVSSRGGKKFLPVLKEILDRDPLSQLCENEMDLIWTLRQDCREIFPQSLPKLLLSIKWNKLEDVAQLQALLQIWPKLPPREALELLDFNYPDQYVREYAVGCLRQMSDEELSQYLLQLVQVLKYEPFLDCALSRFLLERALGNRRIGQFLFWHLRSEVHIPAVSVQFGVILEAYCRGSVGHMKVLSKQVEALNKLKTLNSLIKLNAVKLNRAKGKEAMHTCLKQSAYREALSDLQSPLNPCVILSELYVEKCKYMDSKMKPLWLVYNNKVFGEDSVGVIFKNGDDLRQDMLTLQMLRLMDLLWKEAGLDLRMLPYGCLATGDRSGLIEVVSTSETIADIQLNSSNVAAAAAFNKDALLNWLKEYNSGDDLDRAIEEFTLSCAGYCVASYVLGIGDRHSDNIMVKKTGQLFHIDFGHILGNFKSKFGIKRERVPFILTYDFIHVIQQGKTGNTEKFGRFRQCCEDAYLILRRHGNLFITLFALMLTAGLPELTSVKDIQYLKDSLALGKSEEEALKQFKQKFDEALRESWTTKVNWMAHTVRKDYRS"},
  "source": "patent US8835432B2",
  "about": "“Heterocyclic compounds and their uses” (Amgen Inc., priority 2012, dated 2014)",
  "origin": "cited, not measured here",
  "target": "P110β (Homo sapiens, UniProt P42338)",
  "conditions": "read-out: potency on beta; cited from earlier work",
  "data": [
    {"smiles": "Cc1cc(C(C)Nc2ccccc2)c2nc(N3CCOCC3)cc(=O)n2c1", "note": "(stereo not shown) [TGX-221]", "values": [
      {"measurement": "IC50", "value": 7, "unit": "nM"}
    ]}
  ]
}
